This is a selection; strong and weak results do not stand in their true shares. Records with an inconclusive call do not appear. Active and inactive are the calls of the source. Calls come from the whole dose curve; as a rule, active = well fitted inhibition curve with a large enough effect; inconclusive = small, poorly fitted or top-dose-only effect; inactive = no such curve, though single readings can be large or run the other way.
Assay: Primary qHTS assay for inhibitors of alpha-synuclein gene (SNCA) expression; note: nearly all actives have a fitted effect of over 45% in size
Conditions: HEK-293 SNCA-luciferase knock-in, luminescence, 24 h; at 57.2 µM (top of the series) unless noted
Source text: Assay Submitter (PI): Daniel R. Scoles Ph.D.
Department of Neurology, University of Utah, Salt Lake City, Utah
Accumulation of alpha-synuclein is a main underlying pathological feature of Parkinson's disease (PD) and alpha-synucleinopathies, for which lowering expression of the alpha-synuclein gene (SNCA) is a potential therapeutic avenue. Using a cell-based luciferase reporter of SNCA expression we performed a quantitative high throughput screen (qHTS) of 155,885 compounds in dose response. The screening assay was generated using genome editing to insert the luciferase gene downstream and in frame of the SNCA gene in HEK-293 cells (1). A viability counterscreen using GF-AFC was used to eliminate cytotoxic and false positive compounds. After in silico analysis (clustering, removal of frequent hitter nuisance chemotypes), inhibitor compounds from the primary screen were selected for follow up and re-tested at 11-doses in the SNCA-luc cells (luciferase and GF-AFC confirmation), and in CMV-luc expressing cell line to flag general transcriptional repressors.
Described herein are the results of the primary screen for SNCA inhibitors; decrease in luciferase signal (inhibition of the SNCA gene expression) is the desired output for this assay.
1. Dansithong, W., Paul, S., Scoles, D. R., Pulst, S. M., and Huynh, D. P. (2015) Generation of SNCA Cell Models Using Zinc Finger Nuclease (ZFN) Technology for Efficient High-Throughput Drug Screening. PLoS ONE 10, e0136930.
SEQUENCE No. (e.g., 1, 2, 3, etc.); […] (e.g., Cells, Incubation, Reagent, etc.); VALUE; DESCRIPTION
1; Cells; 4 uL; Dispense 1500 HEK-293-SNCA-luc cells/well into Greiner 1536-well white / solid bottom tissue culture treated plate. The plate was covered with metal lids with gas-exchange holes.
2; Incubate; 24 hours; Incubate at 37C, 5% CO2, 95% RH.
3; Compounds; 23 nL; Compounds and controls were transferred via a Kalypsys Pin Tool (Wako USA) equipped with a 1536-slotted pin array. The plate was covered with metal lids with gas-exchange holes.
4; Incubate; 24 hours; Incubate at 37C, 5% CO2, 95% RH.
5; Dispense; 1 uL; Dispense Gly-Phe-7-amino-4-trifluoromethylcoumarin (GF-AFC, prepared at 125 uM in PBS) was added. The plate was covered with metal lids with gas-exchange holes.
6; Incubate; 30 min; Incubate at 37C, 5% CO2.
7; Detector; Fluorescence; Measure fluorescence with ViewLux microplate reader (PerkinElmer) equipped with 405/10 excitation and 540/25 emission filters.
8; Dispense; 3 uL; Dispense ONE-Glo ([…]) lucifase detection reagent was added to each well. Plates were covered with metal lids with gas-exchange holes.
9; Incubate; 15 min; Incubate at room temperature.
10; Detector; Luminescence; Measure luminescence with ViewLux microplate reader (PerkinElmer) equipped with clear filters.
NOTES (numbers refer to sequence above)
1; HEK-293-SNCA-luc were cultured and suspended in phenol-red free DMEM (4.5 g/L glucose, 25 mM HEPES, cat #21063 (Thermo)).
3; Compounds were added to the assay plate in an 11-point intra plate dose response, 1:3 titration in DMSO with a final concentration range of […]. Vehicle-only plates, with DMSO being pin-transferred to every well, were inserted at the beginning of screening runs to confirm expected assay performance. Activity was normalized to wells containing medium only (-100% activity, full inhibition) and SNCA-luc cells treated with DMSO vehicle control (0% activity), contained on the same plate as test samples.
10; Signals were analyzed, and dose-response curves were fit using the Hill equation. Compounds in curve classes -1.1, -1.2, -2.1, -2.2 in the SNCA-luc assay were considered active. Compounds were eliminated from further consideration if also active (curve class -1.1, -1.2, -1.3, -1.4, -2.1, -2.2, -2.3, -2.4) in the GF-AFC cytotoxicity assay.

Structure (SMILES)	activity change, negative = inhibition
CCC(=O)N(c1ccccc1)C1CCNCC1	inactive: 22.7% [at 25.6 µM]
O=C(NCC1(N2CCOCC2)CCCCC1)c1ccc([N+](=O)[O-])cc1	inactive: -6.38%
O=C(NCC1(N2CCOCC2)CCCCC1)c1ccccc1[N+](=O)[O-]	inactive: -4.86%
O=C(NCC1(N2CCOCC2)CCCCC1)c1ccccc1	inactive: 13.1%
CN(C)C1(CNC(=O)c2ccc(C(C)(C)C)cc2)CCCCC1	inactive: 43.6%
CC(C)(C)c1ccc(C(=O)NCC2(N3CCOCC3)CCCCC2)cc1	inactive: -29.9%
Cc1ccccc1C(=O)NCC1(N(C)C)CCCCC1	inactive: 20.9%
COc1cc(C(=O)NCC2(N3CCOCC3)CCCCC2)cc(OC)c1OC	inactive: 30.2%
CCOC(=O)N1CCC(=O)CC1	inactive: -1.26% [at 25.6 µM]
O=C(NCC1(N2CCOCC2)CCCCC1)c1ccc(Cl)cc1	inactive: -26.8%
COc1ccccc1C(=O)NCC1(N2CCOCC2)CCCCC1	inactive: 0.272%
CCOC(=O)C(=O)CBr	inactive: -21.4%
CCOc1ccc(C(=O)NCC2(N3CCOCC3)CCCCC2)cc1	inactive: -23.9%
O=C(NCC1(N2CCOCC2)CCCCC1)c1ccccc1Br	inactive: -7.7%
